miR-21 reporter = raises the signal of a miR-21 reporter | HeLa miR-21 FLuc reporter, luciferase, 48 h | Potency, µM (doses to about 38.3 µM) | 340,000 tested, under 10 active | AID 2288; active = well fitted rising curve with a large enough effect; inconclusive = small, poorly fitted or top-dose-only effect; inactive = no such curve, though single readings can be large or run the other way;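 note: miR-21 action dims this reporter so a rising signal means less miR-21 action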
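HeLa cells stably expressing CMV-driven firefly luciferase with a downstream miR-21 binding sequence, endogenously expressing miR-21, were treated with titrations (up to about 40uM final) for 48 hours at 37 degree Celsius. Luciferase luminescence was read after lysis.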
uPA surface inh = cell surface uPA generation inhibition | cell surface uPA generation assay, qHTS | Potency, µM (titrated, usually from 38.3 µM), most hits filed as inhibitors | actives 0.31% (n = 330,000) | AID 540303; active means well fitted inhibition curve with a large enough effect; inconclusive means small, poorly fitted or top-dose-only effect; inactive means no such curve, though single readings can be large or run the other way; tested in mouse RAW 264.7 cells; further: nearly all actives have a fitted effect of over 55% in size
TDP1 block = blocks human tyrosyl-DNA phosphodiesterase 1 | Q9NUW8 | Potency, µM (titrated, usually from 130 µM), usual class: inhibitors | recombinant TDP1, AlphaScreen DNA substrate cleavage | actives 0.28% (n = 350,000); further: nearly all actives have a fitted effect of over 40% in size
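Recombinant E. coli-expressed Tdp1 (1 nM) preincubated with compound 15 min at RT, then 5'-biotin/3'-phosphotyrosine-FITC DNA substrate (15 nM) added for 5 min. AlphaScreen beads (10 ug/ml) added, 10 min RT; tyrosine-FITC cleavage read as signal loss.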
DT40 TDP1 CPT = DT40-hTDP1 cell growth loss with CPT | AID 686979 | chicken DT40 Tdp1-/-;hTDP1 cells + 20 nM CPT, ATP luminescence, 48 h | actives 12% (n = 420,000) | Potency, µM (doses to about 46.2 µM), hits mostly inhibitors; further: nearly all actives have a fitted effect of over 55% in size
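Chicken DT40 Tdp1-/- cells stably complemented with human TDP1 were seeded at 400 cells/well in medium containing 20 nM camptothecin, exposed to pin-transferred compounds, and grown at 37 °C for at least 48 hr. Viability was read as ATP luminescence.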
TDP1 cell noCPT = qHTS for Inhibitors of human tyrosyl-DNA phosphodiesterase 1 (TDP1): qHTS in cells in absence of CPT | DT40 Tdp1-/- hTDP1 cells, no CPT, ATP luminescence, 48 h | Potency, µM (series often up to 46.2 µM), usual class: inhibitors | actives 15% (n = 420,000) | AID 686978, 2013; further: nearly all actives have a fitted effect of over 55% in size
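Seeded 400 DT40-hTDP1 cells/well (vehicle DMSO, no 20 nM CPT); pinned compounds; ≥48 hr at 37 °C; CellTiter-Glo luminescence as viability measure.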
A number is an active result; . = inactive; ? = inconclusive; / = no result given. The list is not random: actives were taken first. Their share in the collection is about 16%. Unless noted, the call rests on the fitted dose curve; in most records, active means well fitted curve in the direction sought with a large enough effect; inconclusive means small, poorly fitted or top-dose-only effect, or another doubt; inactive means no such curve, though single readings can be large; an effect the other way counts as inactive or inconclusive.

SMILES	miR-21 reporter	uPA surface inh	TDP1 block	DT40 TDP1 CPT	TDP1 cell noCPT
Cc1ccc(-c2noc(CN(C(=O)c3cccc(Br)c3)C(C)C)n2)cc1	.	.	.	?	?
Cc1cccc(-c2noc(CN(C(=O)c3ccccc3Cl)C(C)C)n2)c1	.	/	.	?	?
COc1cccc(C(=O)N(Cc2nc(-c3ccc(Cl)cc3)no2)C(C)C)c1OC	.	/	.	18.4µM	20.6µM
O=C(CSc1nnc(-c2cccs2)o1)Oc1ccccc1	.	/	.	.	.
Fc1ccc(Br)cc1SCCc1ccncc1	.	.	/	?	?
COc1ccc(C(=O)NCc2nc(-c3cccc(C)c3)no2)cc1OC	.	/	.	?	16.4µM
COc1ccc(Cl)cc1C(=O)N(Cc1nc(-c2cccc(C)c2)no1)C(C)C	.	?	.	6.51µM	6.51µM
COc1ccc(-c2noc(CN(C(=O)COc3cc(C)c(Br)c(C)c3)C(C)C)n2)cc1	.	/	.	18.4µM	23.1µM
CN(Cc1cccc(F)c1)C(=O)c1ccc2c(=O)n3c(nc2c1)CCC3	.	.	.	.	.
C[N+](C)(C)CCOP(=O)([O-])OP(=O)(O)OCC1OC(n2ccc(N)nc2=O)C(O)C1O (configuration not stated)	/	/	.	.	.
CC1(C)CC(=O)C2=C(C1)NC1=C(C(=O)c3ccccc31)C2c1ccc(Cl)cc1 (configuration not stated)	?	.	.	?	?
CCCSC1=C(C#N)C(c2ccc(OC)cc2)C2=C(CC(C)(C)CC2=O)N1 (configuration not stated)	.	.	.	5.17µM	4.11µM
COc1ccc(C2C(C#N)=C(C)NC3=C2C(=O)CC(C)(C)C3)cc1 (configuration not stated)	.	.	.	.	.
CSC1=C(C#N)C(c2ccc(Cl)cc2)C2=C(CC(C)(C)CC2=O)N1 (configuration not stated)	.	.	.	0.92µM	0.92µM
COc1ccc(N2CCN(CC(O)COc3cc(C)cc(C)c3)CC2)cc1 (configuration not stated)	.	.	/	?	?
CCOC(=O)Cn1nc(-c2ccccc2)c(-c2ccccc2)nc1=O	.	.	/	.	.
C#CCn1c(S(=O)(=O)Cc2ccccc2Cl)nc(-c2ccccc2)c1-c1ccccc1	.	.	.	18.4µM	?
CCOC(=O)Cn1c(-c2cccnc2)nc(-c2ccccc2)c1-c1ccccc1	.	.	/	?	23.1µM
CCOC(=O)Cn1c(S(=O)(=O)Cc2ccccc2Cl)nc(-c2ccccc2)c1-c1ccccc1	.	/	.	16.4µM	14.6µM
C#CCn1c(S(=O)(=O)Cc2ccc(C)cc2)nc(-c2ccccc2)c1-c1ccccc1	.	.	.	?	?
O=c1[nH]c(C2CCN(S(=O)(=O)c3ccccc3)CC2)nc2c1nnn2Cc1c(F)cccc1Cl	.	.	/	.	.
CCCCCCCCN1C(=O)[C@H](CC(=O)NCc2ccc(C)o2)C[C@@]2(C(=O)OC)CC(C)(C)CC=C12	/	/	/	11.6µM	8.2µM
CCCCCCCCN1C(=O)[C@H](CC(=O)NCc2cccs2)C[C@@]2(C(=O)OC)CC(C)(C)CC=C12	/	/	/	14.6µM	8.2µM
COCCCNc1nc2c(c(=O)n(Cc3ccc(OC)cc3)c(=O)n2C)n1C	.	.	/	.	.
COc1ccc(C)cc1NC(=O)CSc1nnc(COc2ccccc2)n1Cc1ccco1	.	.	.	16.4µM	20.6µM
SMILES	miR-21 reporter	uPA surface inh	TDP1 block	DT40 TDP1 CPT	TDP1 cell noCPT
Cc1ccc(NCc2nnc(SCC(=O)c3ccccc3)n2Cc2ccco2)c(C)c1	.	.	.	?	16.4µM
COc1ccc(C(=O)CSc2nnc(-c3cc4ccccc4cc3O)n2Cc2ccco2)cc1	.	/	.	20.6µM	?
COc1cccc(OCc2nnc(SCC(=O)NCc3ccco3)n2CCc2ccccc2)c1	.	.	.	16.4µM	23.1µM
COc1ccc(C(=O)CSc2nnc(-c3cccnc3)n2Cc2ccco2)cc1	.	.	.	.	?
COc1ccc(C)cc1NC(=O)CSc1nnc(COc2ccc(Cl)cc2)n1Cc1ccco1	.	.	.	?	?
O=C(COC(=O)c1cc(C(F)(F)F)cc(C(F)(F)F)c1)NCc1ccc(Cl)cc1	.	.	.	.	.
CCOC(=O)c1ccc2c(c1)nc(SC(C)C(=O)NCC1CCCO1)n2CC (configuration not stated)	/	.	.	.	.
CCn1c(SCC(=O)N(C(C)C)C(C)C)nnc1-c1cc2ccccc2cc1O	.	.	?	23.1µM	18.4µM
CCc1nnc(NC(=O)CSc2nnc(-c3cc4ccccc4cc3O)n2CC)s1	.	.	.	.	?
CCOc1ccc(/C=N/n2c(COc3ccccc3)n[nH]c2=S)cc1OC	.	.	/	?	?
Cc1cccc(OCCc2c(C)[nH]c(=S)[nH]c2=O)c1	.	.	.	?	16.4µM
CCOc1ccc(OCCn2c(=S)[nH]c3ccccc32)cc1	.	?	/	.	.
COc1ccccc1OCCn1c(=O)n(C)c2ccccc21	.	.	.	.	.
Cc1cccc(OCCn2c(=S)[nH]c3ccccc32)c1	.	.	.	23.1µM	?
COc1ccccc1OCCn1c(=S)[nH]c2ccccc21	.	.	.	18.4µM	?
Cc1ccc(OCCn2c(=S)[nH]c3ccccc32)c(C(C)C)c1	.	.	.	25.9µM	?
S=c1[nH]c2ccccc2n1CCOc1ccccc1	.	.	/	.	.
COc1ccc(OC)c(NC(=O)NC2(C(F)(F)F)Oc3ccccc3O2)c1	.	.	.	.	.
CC(=O)Nc1ccc(C(=O)CN2C(=O)CSC2=O)cc1	.	.	/	.	.
O=C(Nc1cccc(Cl)c1)OC1CCCCc2cccnc21 (configuration not stated)	.	.	.	13µM	?
CC(=O)N1c2ccc(S(=O)(=O)N3CCCC(C(=O)NCc4ccccc4Cl)C3)cc2CC1C (configuration not stated)	.	.	.	?	.
COc1cccc(CNS(=O)(=O)c2ccc3c(c2)CC(C)N3C(=O)C2CC2)c1 (configuration not stated)	.	.	.	20.6µM	10.3µM
CC1Cc2cc(S(=O)(=O)NCCc3ccccc3)ccc2N1C(=O)C1CC1 (configuration not stated)	.	.	.	14.6µM	14.6µM
CCC(=O)N1c2ccc(S(=O)(=O)NCc3ccc(F)cc3)cc2CC1C (configuration not stated)	.	/	.	14.6µM	11.6µM
CC1Cc2cc(S(=O)(=O)NCc3ccccc3Cl)ccc2N1C(=O)C1CCC1 (configuration not stated)	.	/	.	14.6µM	7.31µM
CCN1CCN(S(=O)(=O)CC2(C)C3CCC2(C)C(=O)C3Br)CC1 (configuration not stated)	.	.	.	.	.

Source: PubChem
